Results from a protein production outcome set (Wang et al. 2014).

Assay: label from the status in PepcDB records

| Sequence | protein production |
| --- | --- |
| MDLHLFDYSEPGNFSDISWPCNSSDCIVVDTVMCPNMPNKSVLLYTLSFIYIFIFVIGMIANSVVVWVNIQAKTTGYDTHCYILNLAIADLWVVLTIPVWVVSLVQHNQWPMGELTCKVTHLIFSINLFSSIFFLTCMSVDRYLSITYFTNTPSSRKKMVRRVVCILVWLLAFCVSLPDTYYLKTVTSASNNETYCRSFYPEHSIKEWLIGMELVSVVLGFAVPFSIIAVFYFLLARAISASSDQEKHSSRKIIFSYVVVFLVCWLPYHVAVLLDIFSILHYIPFTCRLEHALFTALHVTQCLSLVHCCVNPVLYSFINRNYRYELMKAFIFKYSAKTGLTKLIDASRVSETEYSALEQSTK | failed |
| SRDIRFANHETLQVIYPYTPQNDDELELVPGDFIFMSPMEQTSTSEGWIYGTSLTTGCSGLLPENYITKADECSTWIFHGS | not failed |
| SVDMMDLPRSRINAGMLAQFIDKPVCFVGRLEKIHPTGKMFILSDGEGKNGTIELMEPLDEEISGIVEVVGRVTAKATILCTSYVQFKEDSHPFDLGLYNEAVKIIHDFPQFYPLGIVQHD | not failed |
